Values of other authors, collected in patent US8691290B2 (priority 2006, dated 2014).

Legend:
[1] = tested on: prepared peritoneal tissue; conditions: 10% PVP-I
[2] = not given; remark: listed apart in the source
[3] = 1.25% PVP-I nasal, twice a day for three days, 88 volunteers
[4] = daily application of 10% PVP-I for 2 months

polyvinylpyrolodone-iodine [PVP-I]
iodine absorbed systemically (administered to the nasal cavity): 100%
iodine absorbed systemically (applied to the skin of mammals): less than 0.01%
Growth rate % (control = 100%) ([1]; exposure 1 min): 63%
Growth rate % (control = 100%) ([1]; exposure 30 min): 40%
principal side effects [2, 3]: dryness, itchiness and sneezing
thyroid dysfunction [2, 3]: No thyroid dysfunction was observed
family members with elevated TSH levels [2, 4]: four of seven
goiter induction [2, 4]: did not induce goiter

Where two headings read alike, the source gives them in different places.
